Results reported in ChEMBL document CHEMBL4834412, “2,4,5-Trisubstituted Pyrimidines as Potent HIV-1 NNRTIs: Rational Design, Synthesis, Activity Evaluation, and Crystallographic Studies” (J Med Chem, 2021).

Experiment: Oral bioavailability in Sprague-Dawley rat at 20 mg/kg
Type: ADME, organism-based
Settings: in vivo

Cc1cc(C#N)cc(C)c1Oc1nc(NC2CCN(Cc3ccc(C(N)=O)cc3)CC2)ncc1-c1ccncc1
F: 15.3%
